Experimental data published in ChEMBL document CHEMBL4052703, “Cyclic tetrapeptide HDAC inhibitors as potential therapeutics for spinal muscular atrophy: Screening with iPSC-derived neuronal cells” (Bioorg Med Chem Lett, 2017).

Species on record: Homo sapiens
Test: Increase in SMN2 mRNA expression in induced pluripotent stem cell derived from human GM03813 cells isolated from SMA patient homozygous for deletion of exons 7 and 8 in SMN1 gene and containing 3 SMN2 gene copies at 1 uM by PCR assay relative to untreated control

In the case of `CCC(=O)CCCCC[C@@H]1NC(=O)[C@H]2CCCCN2C(=O)[C@H]([C@@H](C)CC)NC(=O)[C@H](Cc2cn(OC)c3ccccc23)NC1=O`, the fold change (FC) is reported as 1 to 1.6.
